# Experimental data: PubChem BioAssay (Tox21)
# Amino acid sequences for entries named in this document (tags omitted). A change or cut given only in a name is not applied to a line headed by its entry.
# UniProt P37231: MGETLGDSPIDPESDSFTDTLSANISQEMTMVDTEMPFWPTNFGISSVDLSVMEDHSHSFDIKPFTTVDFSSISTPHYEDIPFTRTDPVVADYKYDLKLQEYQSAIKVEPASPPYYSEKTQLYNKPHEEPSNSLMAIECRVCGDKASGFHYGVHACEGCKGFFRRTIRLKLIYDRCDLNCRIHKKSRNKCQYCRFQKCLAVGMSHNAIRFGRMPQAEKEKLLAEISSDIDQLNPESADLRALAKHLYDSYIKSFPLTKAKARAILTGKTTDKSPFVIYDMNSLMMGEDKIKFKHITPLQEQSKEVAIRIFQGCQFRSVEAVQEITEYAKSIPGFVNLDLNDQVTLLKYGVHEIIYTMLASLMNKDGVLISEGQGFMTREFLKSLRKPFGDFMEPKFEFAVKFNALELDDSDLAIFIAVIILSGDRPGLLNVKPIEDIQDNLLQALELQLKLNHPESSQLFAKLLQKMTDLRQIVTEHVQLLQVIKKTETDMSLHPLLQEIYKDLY
# Several values for one entry are separate records, joined by “and”; a condition that tells them apart may be missing. Equal entries are not always repeated. This is a selection; strong and weak results do not stand in their true shares. Inconclusive results are not listed. Activity calls are given as the source filed them. The call rests on the fitted dose curve; in most records, active means well fitted activation curve with a large enough effect in the signal ratio in the repeat runs (not every such curve was filed as active); inconclusive means weak or mixed curves, or effect the other way; inactive means no such curve, though single readings can be large or run the other way; the % refers to the signal ratio.
# Biological target: Peroxisome proliferator-activated receptor gamma (Homo sapiens) (UniProt P37231)
# Assay: qHTS assay to identify small molecule agonists of the peroxisome proliferator-activated receptor gamma (PPARg) signaling pathway (AID 743094)
# Details: HEK293H PPARg-UAS-bla, beta-lactamase FRET ratio, 17 h; at 57 µM (top of the series) unless noted
# From the text: U.S. Tox21 Program National Center for Advancing Translational Sciences [NCATS] NIH Chemical Genomics Center [NCGC] U.S. Environmental Protection Agency [EPA] National Institutes of Environmental Health Sciences [NIEHS] National Toxicology Program [NTP] U.S. Food and Drug Administration [FDA] Tox21 Assay Overview: The peroxisome proliferator-activated receptors (PPARs) are lipid-activated transcription factors of the nuclear receptor superfamily with three distinct subtypes namely PPAR alpha, PPAR delta (also called PPAR beta) and PPAR gamma (PPARg). All these subtypes heterodimerize with Retinoid X receptor (RXR) and these heterodimers regulate transcription of various genes. PPAR-gamma receptor (glitazone receptor) is involved in the regulation of glucose and lipid metabolism. To identify the compounds that activate PPAR-gamma signaling, GeneBLAzer PPAR gamma UAS-bla HEK293H cell line (Invitrogen, Carlsbad, CA, USA) containing a beta-lactamase reporter gene under control of the control of an upstream activator sequence (UAS) stably integrated into HEK293H cells was used to screen Tox21 compound library.
# Tox21 Assay Protocol Summary: PPARg-bla cells were dispensed at 3000 cells/6uL/well in 1536-well black wall/clear bottom plates using a Multidrop Combi (Thermo Fisher Scientific, Waltham, MA) dispenser. After the assay plates were incubated at 37C and 5% CO2 for 5 h, 23 nL of compounds dissolved in DMSO, positive controls or DMSO only was transferred to the assay plate by a Pintool station (Kalypsys, San Diego, CA). The assay plates were incubated at 37C for 17 h. After 1 uL of LiveBLAzerTM B/G FRET substrate was added using a Bioraptr Flying Reagent Dispenser (FRD) workstation (Beckman Coulter, Indianapolis, IN, USA), the plates were incubated at room temperature for 1 h, and fluorescence intensity was measured by an Envision plate reader (PerkinElmer, Shelton, CT).
# On the % scale 0 is the no-effect control and ±100 the full control effect.
row,SMILES,activation
1,COP(=S)(Cl)OC,inactive: 10.1% [at 78.9 µM]
2,CC(C)CCCCCCCOP(OCCCCCCCC(C)C)Oc1ccccc1,inactive: -8.88%
3,O=C(OC1CN2CCC1CC2)c1ccccc1 (stereo not drawn),inactive: -6.95%
4,O=[P+](Oc1ccccc1)Oc1ccccc1,inactive: -3.42%
5,CCCCC(CC)CO[P+](=O)OCC(CC)CCCC (stereo not drawn),inactive: -3.38%
6,CN(C(=O)Cc1ccccc1)[C@H]1CC[C@@]2(CCCO2)C[C@@H]1N1CCCC1,inactive: 0.001%
7,CCOC(=O)Cl,inactive: 2.4%
8,COC(=O)Cl,inactive: 3.81%
9,CN(C(=O)Cc1cccc2occc12)[C@H]1CC[C@@]2(CCCO2)C[C@@H]1N1CCCC1,inactive: -11%
10,CN(C(=O)Cc1ccc(Cl)c(Cl)c1)[C@H]1CC[C@@]2(CCCO2)C[C@@H]1N1CCCC1,inactive: -2.33%
11,ClP(Cl)c1ccccc1,inactive: 2.74%
12,O=[p+]1oc2ccccc2c2ccccc21 (stereo not drawn),inactive: 5.25%
13,Cc1cc([N+](=O)[O-])c(O)c([N+](=O)[O-])c1,inactive: -7.45% [at 78.9 µM]
14,CCNC(C)Cc1ccc2c(c1)OCO2 (stereo not drawn),inactive: -12.1% [at 78.9 µM]
15,O=P(Cl)(Oc1ccccc1)Oc1ccccc1,inactive: -2.08%
16,CCCCO[P+](=O)OCCCC,inactive: 1.44% and inactive: 1.3%
17,CCOP(=S)(CC)Sc1ccccc1 (stereo not drawn),inactive: -0.613%
18,O=P(Cl)(Cl)c1ccccc1,inactive: 2.69%
